# Target: human orexin-2 receptor (Homo sapiens (Human), UniProt O43614)
# By UniProt entry, the sequences of proteins in these tests, tags left out.
# UniProt O43614, whole entry: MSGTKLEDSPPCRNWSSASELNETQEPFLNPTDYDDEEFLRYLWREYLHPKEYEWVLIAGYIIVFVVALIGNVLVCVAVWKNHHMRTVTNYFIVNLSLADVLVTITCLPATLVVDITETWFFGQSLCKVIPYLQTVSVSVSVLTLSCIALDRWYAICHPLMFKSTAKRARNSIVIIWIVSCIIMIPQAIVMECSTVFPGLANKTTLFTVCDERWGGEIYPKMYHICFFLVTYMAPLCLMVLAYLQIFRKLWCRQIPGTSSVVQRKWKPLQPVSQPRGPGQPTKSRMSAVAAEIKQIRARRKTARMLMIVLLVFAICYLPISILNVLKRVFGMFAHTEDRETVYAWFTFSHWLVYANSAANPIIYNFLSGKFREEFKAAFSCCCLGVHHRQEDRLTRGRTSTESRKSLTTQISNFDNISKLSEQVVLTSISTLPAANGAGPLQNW
# Experiment: In vitro intracellular calcium measurements (FLIPR), antagonism of orexin-A response, OX2
# Type: cell-based
# Conditions: CHO cells expressing human orexin-2 receptor; 3 nM orexin-A; compound incubation time 120 min
row,SMILES,IC50 [nM]
1,"COc1cc2ccn(CCn3cc(NC(=O)c4ncoc4-c4ccccc4F)cn3)c2cc1OC [Example 36, 5-(2-Fluoro-phenyl)-oxazole-4-carboxylic acid {1-[2-(5,6-dimethoxy-indol-1-yl)-ethyl]-1H-pyrazol-4-yl}-amide]",287
2,"COc1ccc2[nH]cc(CCn3cc(NC(=O)c4ncoc4-c4cccc(OC(F)(F)F)c4)cn3)c2c1 [Example 37, 5-(3-Trifluoromethoxy-phenyl)-oxazole-4-carboxylic acid {1-[2-(5-methoxy-1H-indol-3-yl)-ethyl]-1H-pyrazol-4-yl}-amide]",13
3,"COc1ccc2[nH]cc(CCn3cc(NC(=O)c4ncoc4-c4cccc(C(F)(F)F)c4)cn3)c2c1 [Example 38, 5-(3-Trifluoromethyl-phenyl)-oxazole-4-carboxylic acid {1-[2-(5-methoxy-1H-indol-3-yl)-ethyl]-1H-pyrazol-4-yl}-amide]",16
4,"COc1ccc2[nH]cc(CCn3cc(NC(=O)c4ncoc4-c4cccc(Cl)c4)cn3)c2c1 [Example 39, 5-(3-Chloro-phenyl)-oxazole-4-carboxylic acid {1-[2-(5-methoxy-1H-indol-3-yl)-ethyl]-1H-pyrazol-4-yl}-amide]",2
5,"COc1ccc2[nH]cc(CCn3cc(NC(=O)c4ncoc4-c4cccc(-c5ccccc5)c4)cn3)c2c1 [Example 40, 5-Biphenyl-3-yl-oxazole-4-carboxylic acid {1-[2-(5-methoxy-1H-indol-3-yl)-ethyl]-1H-pyrazol-4-yl}-amide]",73
6,"COc1ccc2[nH]cc(CCn3cc(NC(=O)c4ncoc4-c4ccc(C(F)(F)F)cc4)cn3)c2c1 [Example 41, 5-(4-Trifluoromethyl-phenyl)-oxazole-4-carboxylic acid {1-[2-(5-methoxy-1H-indol-3-yl)-ethyl]-1H-pyrazol-4-yl}-amide]",594
7,"COc1ccc2[nH]cc(CCn3cc(NC(=O)c4ncsc4-c4ccccc4)cn3)c2c1 [Example 42, 5-Phenyl-thiazole-4-carboxylic acid {1-[2-(5-methoxy-1H-indol-3-yl)-ethyl]-1H-pyrazol-4-yl}-amide]",65
8,"COc1ccc2[nH]cc(CCn3cc(NC(=O)c4ncsc4-c4cccc(Cl)c4)cn3)c2c1 [Example 43, 5-(3-Chloro-phenyl)-thiazole-4-carboxylic acid {1-[2-(5-methoxy-1H-indol-3-yl)-ethyl]-1H-pyrazol-4-yl}-amide]",20
9,"COc1ccc2[nH]cc(CCn3cc(NC(=O)c4ncsc4-c4ccc(C)c(C)c4)cn3)c2c1 [Example 44, 5-(3,4-Dimethyl-phenyl)-thiazole-4-carboxylic acid {1-[2-(5-methoxy-1H-indol-3-yl)-ethyl]-1H-pyrazol-4-yl}-amide]",225
10,"COc1ccc2[nH]cc(CCn3cc(NC(=O)c4ncsc4-c4ccc(OC)nc4)cn3)c2c1 [Example 45, 5-(6-Methoxy-pyridin-3-yl)-thiazole-4-carboxylic acid {1-[2-(5-methoxy-1H-indol-3-yl)-ethyl]-1H-pyrazol-4-yl}-amide]",235
11,"Cc1ccc(-c2ocnc2C(=O)Nc2cnn(CCn3c(C)nc4ccccc43)c2)cc1C [Example 47, 5-(3,4-Dimethyl-phenyl)-oxazole-4-carboxylic acid {1-[2-(2-methyl-benzoimidazol-1-yl)-ethyl]-1H-pyrazol-4-yl}-amide]",757
12,"COc1cc(-c2ocnc2C(=O)Nc2cnn(CCn3c(C)nc4ccccc43)c2)ccc1C [Example 48, 5-(3-Methoxy-4-methyl-phenyl)-oxazole-4-carboxylic acid {1-[2-(2-methyl-benzoimidazol-1-yl)-ethyl]-1H-pyrazol-4-yl}-amide]",3800
13,"COc1cc(OC)nc(NCCn2cc(NC(=O)c3ncoc3-c3ccc(C)c(C)c3)cn2)n1 [Example 49, 5-(3,4-Dimethyl-phenyl)-oxazole-4-carboxylic acid {1-[2-(4,6-dimethoxy-pyrimidin-2-ylamino)-ethyl]-1H-pyrazol-4-yl}-amide]",51
14,"COc1cc(OC)nc(NCCn2cc(NC(=O)c3ncoc3-c3ccc(C)c(OC)c3)cn2)n1 [Example 50, 5-(3-Methoxy-4-methyl-phenyl)-oxazole-4-carboxylic acid {1-[2-(4,6-dimethoxy-pyrimidin-2-ylamino)-ethyl]-1H-pyrazol-4-yl}-amide]",238
15,"Cc1cccc(-c2ocnc2C(=O)Nc2cnn(CCc3cn(C)c4ccccc34)c2)c1 [Example 57, 5-m-Tolyl-oxazole-4-carboxylic acid {1-[2-(1-methyl-1H-indol-3-yl)-ethyl]-1H-pyrazol-4-yl}-amide]",265
16,"Cc1cccc(-c2ocnc2C(=O)Nc2cnn(CCc3c[nH]c4ccccc34)c2)c1 [Example 58, 5-m-Tolyl-oxazole-4-carboxylic acid {1-[2-(1H-indol-3-yl)-ethyl]-1H-pyrazol-4-yl}-amide]",236
17,"COc1ccc2c(CCn3cc(NC(=O)c4ncoc4-c4cccc(C)c4)cn3)cn(C)c2c1 [Example 60, 5-m-Tolyl-oxazole-4-carboxylic acid {1-[2-(6-methoxy-1-methyl-1H-indol-3-yl)-ethyl]-1H-pyrazol-4-yl}-amide]",665
18,"Cc1cccc(-c2ocnc2C(=O)Nc2cnn(CCc3c[nH]c4ccc(F)cc34)c2)c1 [Example 62, 5-m-Tolyl-oxazole-4-carboxylic acid {1-[2-(5-fluoro-1H-indol-3-yl)-ethyl]-1H-pyrazol-4-yl}-amide]",98
19,"COc1cccc2[nH]cc(CCn3cc(NC(=O)c4ncoc4-c4cccc(C)c4)cn3)c12 [Example 65, 5-m-Tolyl-oxazole-4-carboxylic acid {1-[2-(4-methoxy-1H-indol-3-yl)-ethyl]-1H-pyrazol-4-yl}amide]",111
20,"COc1ccc2[nH]cc(CCn3cnc(NC(=O)c4ncoc4-c4cccc(C)c4)c3)c2c1 [Example 66, 5-m-Tolyl-oxazole-4-carboxylic acid {1-[2-(5-methoxy-1H-indol-3-yl)-ethyl]-1H-imidazol-4-yl}-amide]",27
21,"CCOc1cc(OC)nc(CCCn2cc(NC(=O)c3ncoc3-c3cccc(C)c3)cn2)n1 [Example 68, 5-m-Tolyl-oxazole-4-carboxylic acid {1-[3-(4-ethoxy-6-methoxy-pyrimidin-2-yl)-propyl]-1H-pyrazol-4-yl}-amide]",84

# Continued, values first:
row,IC50 [nM],SMILES
1,353,"COc1cc(OC)nc(NCCn2cc(NC(=O)c3ncoc3-c3cccc(C#N)c3)cn2)n1 [Example 51, 5-(3-Cyano-phenyl)-oxazole-4-carboxylic acid {1-[2-(4,6-dimethoxy-pyrimidin-2-ylamino)-ethyl]-1H-pyrazol-4-yl}-amide]"
2,25,"COc1cc(OC)nc(NCCn2cc(NC(=O)c3ncoc3-c3cccc(F)c3)cn2)n1 [Example 52, 5-(3-Fluoro-phenyl)-oxazole-4-carboxylic acid {1-[2-(4,6-dimethoxy-pyrimidin-2-ylamino)-ethyl]-1H-pyrazol-4-yl}-amide]"
3,41,"COc1cc(OC)nc(NCCn2cc(NC(=O)c3ncoc3-c3ccccc3F)cn2)n1 [Example 53, 5-(2-Fluoro-phenyl)-oxazole-4-carboxylic acid {1-[2-(4,6-dimethoxy-pyrimidin-2-ylamino)-ethyl]-1H-pyrazol-4-yl}-amide]"
4,100,"COc1ccc(-c2ocnc2C(=O)Nc2cnn(CCNc3nc(OC)cc(OC)n3)c2)cc1 [Example 55, 5-(4-Methoxy-phenyl)-oxazole-4-carboxylic acid {1-[2-(4,6-dimethoxy-pyrimidin-2-ylamino)-ethyl]-1H-pyrazol-4-yl}-amide]"
5,94,"COc1nc(OC)c2ccn(CCn3cc(NC(=O)c4ncoc4-c4cccc(C)c4)cn3)c2n1 [Example 80, 5-m-Tolyl-oxazole-4-carboxylic acid {1-[2-(2,4-dimethoxy-pyrrolo[2,3-d]pyrimidin-7-yl)-ethyl]-1H-pyrazol-4-yl}-amide]"

# Same assay, conditions: CHO cells expressing human orexin-2 receptor; 3 nM orexin-A; compound incubation time of 10 min (#)
row,SMILES,IC50 [nM]
1,"Cc1cccc(-c2ocnc2C(=O)Nc2cnn(CCOc3ccc4c(c3)OCO4)c2)c1 [Example 69, 5-m-Tolyl-oxazole-4-carboxylic acid {1-[2-(benzo[1,3]dioxo1-5-yloxy)-ethyl]-1H-pyrazol-4-yl}-amide]",414
2,"Cc1cccc(-c2ocnc2C(=O)Nc2cnn(CCn3ccc4cc(C)ccc43)c2)c1 [Example 77, 5-m-Tolyl-oxazole-4-carboxylic acid {1-[2-(5-methyl-indol-111)-ethyl]-1H-pyrazol-4-yl}-amide]",204

# Next, values leading:
row,IC50 [nM],SMILES
1,110,"Cc1cccc(-c2ocnc2C(=O)Nc2cnn(CCSc3nc4ccccc4o3)c2)c1 [Example 70, 5-m-Tolyl-oxazole-4-carboxylic acid {1-[2-(benzooxazol-2-ylsulfanyl)-ethyl]-1H-pyrazol-4-yl}-amide]"
2,949,"Cc1cccc(-c2ocnc2C(=O)Nc2cnn(CCOc3ccc4nc(C)oc4c3)c2)c1 [Example 71, 5-m-Tolyl-oxazole-4-carboxylic acid {1-[2-(2-methyl-benzooxazol-6-yloxy)-ethyl]-1H-pyrazol-4-yl}-amide]"
3,1990,"Cc1cccc(-c2ocnc2C(=O)Nc2cnn(CCOc3cc(C(F)(F)F)n(C)n3)c2)c1 [Example 73, 5-m-Tolyl-oxazole-4-carboxylic acid {1-[2-(1-methyl-5-trifluoromethyl-1H-pyrazol-3-yloxy)-ethyl]-1H-pyrazol-4-yl)-amide]"
4,67,"Cc1cccc(-c2ocnc2C(=O)Nc2cnn(CCn3ccc4ccc(F)cc43)c2)c1 [Example 74, 5-m-Tolyl-oxazole-4-carboxylic acid {1-[2-(6-fluoro-indol-1-yl)-ethyl]-1H-pyrazol-4-yl}-amide]"
5,180,"Cc1cccc(-c2ocnc2C(=O)Nc2cnn(CCn3ccc4cccc(F)c43)c2)c1 [Example 75, 5-m-Tolyl-oxazole-4-carboxylic acid {1-[2-(7-fluoro-indol-1-yl)-ethyl]-1H-pyrazol-4-yl}-amide]"
6,548,"COc1ccnc2c1ccn2CCn1cc(NC(=O)c2ncoc2-c2cccc(C)c2)cn1 [Example 79, 5-m-Tolyl-oxazole-4-carboxylic acid {1-[2-(4-methoxy-pyrrolo[2,3-b]pyridin-1yl)-ethyl]-1H-pyrazol-4-yl}-amide]"
